Ten compounds from patent US9657003B2, “Androgen receptor modulating compounds” (ORION CORPORATION, priority 2009, dated 2017) can be followed below.

Chains of the proteins cited; added tags and fusions are not shown. Lines headed by an entry give the natural chain unless they say otherwise; changes in a name come on top.
UniProt P15207, whole entry S389L: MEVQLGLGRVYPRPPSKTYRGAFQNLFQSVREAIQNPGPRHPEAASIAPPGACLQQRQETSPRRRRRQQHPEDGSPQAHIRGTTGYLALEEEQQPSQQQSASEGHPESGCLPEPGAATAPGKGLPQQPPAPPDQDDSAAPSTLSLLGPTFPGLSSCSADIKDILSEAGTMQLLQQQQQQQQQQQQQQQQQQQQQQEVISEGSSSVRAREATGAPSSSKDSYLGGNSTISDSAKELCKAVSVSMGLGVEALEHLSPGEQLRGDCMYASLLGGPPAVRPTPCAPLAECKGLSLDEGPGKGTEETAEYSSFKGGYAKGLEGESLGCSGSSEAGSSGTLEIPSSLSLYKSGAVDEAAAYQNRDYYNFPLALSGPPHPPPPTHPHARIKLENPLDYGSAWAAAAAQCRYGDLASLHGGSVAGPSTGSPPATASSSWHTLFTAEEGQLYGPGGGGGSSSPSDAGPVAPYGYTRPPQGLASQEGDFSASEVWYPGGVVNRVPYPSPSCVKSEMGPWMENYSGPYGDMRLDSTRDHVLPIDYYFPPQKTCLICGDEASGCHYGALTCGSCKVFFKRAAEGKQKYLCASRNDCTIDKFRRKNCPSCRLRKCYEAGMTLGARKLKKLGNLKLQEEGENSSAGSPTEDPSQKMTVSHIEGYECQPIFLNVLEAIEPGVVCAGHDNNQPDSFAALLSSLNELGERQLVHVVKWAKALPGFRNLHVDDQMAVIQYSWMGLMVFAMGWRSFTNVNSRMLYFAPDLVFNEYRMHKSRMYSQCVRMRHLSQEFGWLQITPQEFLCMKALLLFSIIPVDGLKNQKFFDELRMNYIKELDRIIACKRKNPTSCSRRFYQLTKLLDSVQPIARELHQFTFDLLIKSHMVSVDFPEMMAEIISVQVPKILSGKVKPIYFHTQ
UniProt P10275: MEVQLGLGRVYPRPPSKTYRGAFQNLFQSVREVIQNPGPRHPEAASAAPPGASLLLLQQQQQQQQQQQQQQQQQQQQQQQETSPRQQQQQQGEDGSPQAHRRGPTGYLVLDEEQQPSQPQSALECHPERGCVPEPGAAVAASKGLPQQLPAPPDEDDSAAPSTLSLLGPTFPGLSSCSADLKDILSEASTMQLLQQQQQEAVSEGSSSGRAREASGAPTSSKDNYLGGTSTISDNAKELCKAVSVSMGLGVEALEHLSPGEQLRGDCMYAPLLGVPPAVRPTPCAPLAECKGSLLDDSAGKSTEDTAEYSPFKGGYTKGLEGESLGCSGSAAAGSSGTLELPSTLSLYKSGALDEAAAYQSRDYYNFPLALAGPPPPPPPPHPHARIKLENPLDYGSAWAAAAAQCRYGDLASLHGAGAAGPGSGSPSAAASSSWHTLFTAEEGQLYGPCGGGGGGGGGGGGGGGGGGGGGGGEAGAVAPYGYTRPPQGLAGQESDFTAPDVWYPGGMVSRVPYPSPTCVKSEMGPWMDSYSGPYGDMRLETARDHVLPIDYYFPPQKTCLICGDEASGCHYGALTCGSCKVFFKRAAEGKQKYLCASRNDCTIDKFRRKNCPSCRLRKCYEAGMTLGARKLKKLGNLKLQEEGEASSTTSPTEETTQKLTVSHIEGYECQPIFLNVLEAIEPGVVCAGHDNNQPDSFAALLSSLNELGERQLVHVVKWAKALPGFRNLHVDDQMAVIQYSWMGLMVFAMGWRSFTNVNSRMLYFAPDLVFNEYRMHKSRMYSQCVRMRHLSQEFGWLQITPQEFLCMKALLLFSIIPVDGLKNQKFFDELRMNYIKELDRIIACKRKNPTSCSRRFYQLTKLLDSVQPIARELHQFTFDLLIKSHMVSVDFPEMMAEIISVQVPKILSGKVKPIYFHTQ

What is called Ki is the dissociation constant of the complex between target and ligand, obtained from inhibition or displacement. For orientation: IC50 means the point on the concentration scale where inhibition reaches its midpoint.

One assay concerns the target rat androgen receptor (Rattus norvegicus (Rat), UniProt P15207). Nature of the assay: Androgen receptor binding assay (competition binding with [3H]mibolerone). Particulars: cytosolic lysates from ventral prostates of castrated rats; 1 nM [3H]mibolerone; Cheng and Prusoff; read-out: AR binding affinity Ki.
In assay [1] the test system is VCaP prostate cancer cell line. Briefly: Inhibition of mibolerone-induced VCaP cell proliferation (WST-1). Format: cell-based. Conditions: mibolerone-induced (usually 0.1 nM) proliferation, 4-5 days. On the procedure: The IC50 value of the test compound for inhibition of mibolerone-induced VCaP cell proliferation was measured.
Cell Proliferation Assays
The ability of test compounds to inhibit prostate, cancer cell growth was studied by measuring inhibition of cell proliferation using androgen-sensitive VCaP prostate cancer cell line. […] Cell proliferation was measured using WST-1 Cell Proliferation Assay (Roche).
On the technique in general: Formazan colour is commonly taken as a measure of viable cells.

A further assay has as its target human AR (Homo sapiens (Human), UniProt P10275). Nature of the assay: AR antagonism, reporter gene assay in hAR/HEK293 cells. The class given is cell-based. Particulars: with submaximal testosterone (usually 0.45 nM), luciferase reporter, 24 incubation. (A reporter such as luciferase makes a cellular process visible.)

On to `Cc1nc(-c2cc(C(=O)N[C@@H](C)Cn3ccc(-c4ccc(C#N)c(Cl)c4)n3)n[nH]2)cs1` [Example 94, (S)—N-(1-(3-(3-chloro-4-cyanophenyl)-1H-pyrazol-1-yl)propan-2-yl)-5-(2-methylthiazol-4-yl)-1H-pyrazole-3-carboxamide], for which, on rat androgen receptor, the Ki stood at 8 nM.
`N#Cc1ccc(-c2ccn(CCNC(=O)c3cc(-c4cccnc4)n[nH]3)n2)cc1C#N` [Example 52, N-(2-(3-(3,4-dicyanophenyl)-1H-pyrazol-1-yl)ethyl)-3-(pyridin-3-yl)-1H-pyrazole-5-carboxamide]: the Ki at rat androgen receptor was 27 nM.
On the same count and under the same terms, with `C[C@@H](Cn1ccc(-c2ccc(C#N)c(Cl)c2)n1)NC(=O)c1[nH]nc2c1COCC2` [Example 338, (S)—N-(1-(3-(3-chloro-4-cyanophenyl)-1H-pyrazol-1-yl)propan-2-yl)-2,4,6,7-tetrahydropyrano[4,3-c]pyrazole-3-carboxamide] the figure was 14 nM; with `Cc1c(-c2ccn(C[C@H](C)NC(=O)c3csc(C(C)O)n3)n2)ccc(C#N)c1Cl` (stereo partly drawn) [Example 186, N—((S)-1-(3-(3-chloro-4-cyano-2-methylphenyl)-1H-pyrazol-1-yl)propan-2-yl)-2-(1-hydroxyethyl)thiazole-4-carboxamide], 3 nM.
On to `CC(=O)c1cc(C(=O)N[C@@H](C)Cn2ccc(-c3ccc(C#N)c(Cl)c3)n2)[nH]n1` [Example 34, (S)-3-acetyl-N-(1-(3-(3-chloro-4-cyanophenyl)-1H-pyrazol-1-yl)propan-2-yl)-1H-pyrazole-5-carboxamide], for which, on rat androgen receptor, the Ki amounted to 16 nM.
On the same count and under the same terms, to `O=C(NCCc1ccc(-c2ccc(Cl)c(Cl)c2)o1)c1cc(C(=O)N2CCOCC2)n[nH]1` [Example 8, N-(2-(5-(3,4-dichlorophenyl)furan-2-yl)ethyl)-3-(morpholine-4-carbonyl)-1H-pyrazole-5-carboxamide] belongs 62 nM.
Turning to Bicalutamide [reference compound], the half-maximal inhibitory concentration (IC50) in assay [1] fell in the range of 2000 to 3000 nM.
With `CC(=O)c1cc(C(=O)NC[C@H](C)n2ccc(-c3cc(F)c(C#N)c(F)c3)n2)[nH]n1` [Example 219, (S)-3-acetyl-N-(2-(3-(4-cyano-3,5-difluorophenyl)-1H-pyrazol-1-yl)propyl)-1H-pyrazole-5-carboxamide], the Ki on rat androgen receptor is 40 nM. This compound registered an IC50 on human AR of 146 nM.
Consider `C[C@H](Cn1ccc(-c2ccc(C#N)c(Cl)c2)n1)NC(=O)c1csc(N2CCOCC2)n1` [Example 132, (R)—N-(1-(3-(3-chloro-4-cyanophenyl)-1H-pyrazol-1-yl)propan-2-yl)-2-morpholinothiazole-4-carboxamide], for which the inhibitory constant (Ki) on rat androgen receptor came out at 29 nM.
At human AR, `Cc1cc(-c2ccn(CCNC(=O)c3cc(-c4cccnc4)n[nH]3)n2)ccc1C#N` [Example 53, N-(2-(3-(4-cyano-3-methylphenyl)-1H-pyrazol-1-yl)ethyl)-3-(pyridin-3-yl)-1H-pyrazole-5-carboxamide] yielded an IC50 of 88 nM.
